The source of these data is PubChem BioAssay AID894 (National Center for Advancing Translational Sciences (NCATS), 2007).

Chains of the proteins cited; added tags and fusions are not shown. Lines headed by an entry give the natural chain unless they say otherwise; changes in a name come on top.
UniProt P15428: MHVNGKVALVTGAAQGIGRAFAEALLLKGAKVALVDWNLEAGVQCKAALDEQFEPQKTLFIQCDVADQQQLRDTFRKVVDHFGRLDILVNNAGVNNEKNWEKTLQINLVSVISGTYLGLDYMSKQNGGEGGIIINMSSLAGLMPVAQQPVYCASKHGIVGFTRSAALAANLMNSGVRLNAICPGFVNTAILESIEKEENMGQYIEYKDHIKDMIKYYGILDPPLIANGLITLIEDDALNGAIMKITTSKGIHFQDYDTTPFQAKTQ

Only a part is listed here, and it is no random draw. Results filed as inconclusive are left out. Calls of active or inactive are those of the source. Calls follow the shape of the dose curve; as a rule, active = well fitted inhibition curve with a large enough effect (not every such curve was filed as active); inconclusive = small, poorly fitted or top-dose-only effect, or another doubt; inactive = no such curve, though single readings can be large or run the other way.
Potency is read from the fitted curve at half-maximal effect.

In this assay the target is 15-hydroxyprostaglandin dehydrogenase [NAD(+)] (Homo sapiens) (UniProt P15428). Put plainly: qHTS Assay for Inhibitors of HPGD (15-Hydroxyprostaglandin Dehydrogenase). The settings on record: purified HPGD, NADH fluorescence kinetic, PGE2 substrate. (Quantitative high-throughput screening tests each substance at several concentrations.)
`O=C1NC(=O)/C(=C/c2ccccc2Oc2ccc(Cl)cc2)S1`: the Potency was active: 3.55 µM.
